# Measured affinities in a library of Ab-95 light chain variants

Reference: Engelhart et al. 2022, doi:10.1038/s41597-022-01779-4. File: FLAb, binding data.

Antigen: PDVDLGDISGINAS, a 14-residue peptide of the SARS-CoV-2 spike HR2 region.

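Phage display of a naive human antibody library on the peptide gave the parent. AAYL52 was designed without a model: most single CDR substitutions and a random sample of double and triple ones. Affinity was read by AlphaSeq, a pooled yeast mating assay with surface-displayed partners. Mating (16 h, 30 °C) was followed by selection of diploids and sequencing of their barcodes. The ratio of observed to expected reads was calibrated, replicate by replicate, on BCL2-family standards whose Kd was known from biolayer interferometry. Each pool was mated in three replicate cultures.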

Parent scFv Ab-95: VH joined to VL by a (GGGGS)3 linker. Changes lie in the light chain CDRs alone.
VH: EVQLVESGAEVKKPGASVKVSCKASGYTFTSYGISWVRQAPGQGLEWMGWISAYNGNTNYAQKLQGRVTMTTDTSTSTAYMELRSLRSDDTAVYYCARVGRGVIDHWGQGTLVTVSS
VL: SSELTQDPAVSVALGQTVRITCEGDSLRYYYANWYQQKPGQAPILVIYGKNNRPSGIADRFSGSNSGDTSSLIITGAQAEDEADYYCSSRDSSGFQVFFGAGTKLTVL

The parent's light chain CDRs are EGDSLRYYYAN, GKNNRPS, SSRDSSGFQVF; each variant's own CDRs replace them letter for letter. This list gathers variants with a substitution at S88 (VL, numbered from residue 1). Values are apparent Kd, the geometric mean of the replicates that gave a signal; lower means stronger binding. An entry "nd" has no value in the source: the pair was not observed among the diploids in any replicate. This suggests poor binding but is not conclusive.

For EGDSLRYVYAN | GKNNRRS | ISRDSSGFQVF, the assay gave nd (0 of 3 replicates). The variant EGDKLRYYYAN | GKNNRPS | MSRDSSGFQVF showed 1.3 µM (1 of 3 replicates). The variant EGDSLRYYYAN | GKNNRPS | WSRDHHGFQVF gave 1.4 µM (1 of 3 replicates). With EGDPLRYYYAN | GKNNRPK | ESRDSSGFQVF the result was 1.2 µM (3 of 3 replicates). For PGDNLRYYYAN | GKNNRPS | LSRDSSGFQVF, the assay gave 7.9 µM (2 of 3 replicates). The variant EGDSLRYYYAN | QKNNRPS | YSRDSSKFQVF gave nd (0 of 3 replicates).

The variant EGDSLRYYYAN | GTNNRPS | WSRDSSGFQVW gave 1.2 µM (3 of 3 replicates). For EGDSLRYYYAR | GKNNRPS | HSDDSSGFQVF, the assay gave 8.4 µM (3 of 3 replicates). The variant EGDSLRYYYAN | GKNNGPS | ISRDSSGFQVF gave 330 µM (1 of 3 replicates). The variant EGDSLRYYYAN | GKNNRPS | ISNDSSWFQVF gave 9.9 µM (1 of 3 replicates). The variant EGDSLRYYYAN | GKNNRPS | DSRDKQGFQVF showed 150 nM (2 of 3 replicates). The variant EGDSLRYYYAN | GMNNRPS | MSRDSSGPQVF showed 8.0 µM (2 of 3 replicates).

The variant EGDSLRYMYAN | GKYNRPS | TSRDSSGFQVF showed 2.1 µM (3 of 3 replicates). With EGDSLRYYEAN | GKNNRPS | DSRDSSGFQVF the result was 28 nM (3 of 3 replicates). The variant EGDSLRYYYMN | FKNNRPS | NSRDSSGFQVF gave 9.7 µM (1 of 3 replicates). With EGDSLRYYYAD | GKNNRPS | WSRDSHGFQVF the result was 3.8 µM (2 of 3 replicates). The variant ELDSLHYYYAN | GKNNRPS | YSRDSSGFQVF showed 560 nM (1 of 3 replicates). For EGDSLRYSYAN | GKNNRPS | PSRDSSGFQMF, the assay gave 14 µM (1 of 3 replicates).

The variant EGDSLRYYYAN | GKGNRPS | ESRASSGFQVF showed nd (0 of 3 replicates). The variant EGDSLRYYYAN | GKNNRPY | MSRDSSGMQVF showed 2.7 µM (2 of 3 replicates). The variant EGDSLRYYYAN | GKNNRPS | WSRDSSGFQSL showed 4.3 µM (3 of 3 replicates). With EGKSLRYYYAN | GKNNNPS | NSRDSSGFQVF the result was 9.5 µM (2 of 3 replicates). The variant EGDSLRYYYAN | GKNNRPS | GSRHSSGFQCF showed 130 nM (3 of 3 replicates). The variant EGDSLRYYYAN | EKNNRPS | LSRDSSGFQVF gave 4.0 µM (2 of 3 replicates).

With EGDSLRYYYAN | GKNNRSS | TSRDHSGFQVF the result was nd (0 of 3 replicates). For EGDHLRYYWAN | GKNNRPS | ISRDSSGFQVF, the assay gave 15 µM (2 of 3 replicates). The variant EGDSYRYYYHN | GKNNRPS | LSRDSSGFQVF showed 68 µM (1 of 3 replicates). With EGDSLRYYYAN | GKNNRPS | GSRVSHGFQVF the result was 150 µM (1 of 3 replicates). With EGDSLRYYYAD | GKNNRPS | IERDSSGFQVF the result was nd (0 of 3 replicates). The variant EVDSLRYYYAV | GKNNRPS | DSRDSSGFQVF showed 2.2 µM (1 of 3 replicates).

The variant EGDSLRLYYAN | GKNNRPS | NSRDSSTFQVF showed 16 µM (2 of 3 replicates). For EGDSLRYYYAN | GKNNRPS | GSRHSSGFQVF, the assay gave 330 nM (3 of 3 replicates). For EGDSLRYYYAN | GHNNRPS | WSRDSSIFQVF, the assay gave 73 nM (3 of 3 replicates). The variant EGDSLRYYYAN | GKNNRPS | GSRDSSGFQVF showed 390 nM (3 of 3 replicates). With EGDSSRYYYAN | FKNNRPS | RSRDSSGFQVF the result was 2.9 µM (1 of 3 replicates). With EKDSLRYYYAN | GKNNRPS | NSRDSAGFQVF the result was 5.3 µM (3 of 3 replicates).

The variant EGDSLRYGYAN | GKNNRPS | TSRTSSGFQVF gave 43 nM (3 of 3 replicates). With EGCSLRYYYAN | GKNNRPS | HSRDSSGFQVF the result was nd (0 of 3 replicates). The variant EGDSLGYYYAN | GKNNRAS | QSRDSSGFQVF showed 620 nM (3 of 3 replicates). The variant EGDSLRYYYAN | GKNNRPS | DERDSSGLQVF showed nd (0 of 3 replicates). The variant EGDSLRYYYAN | GKINRPS | ASRDSTGFQVF showed nd (0 of 3 replicates). The variant EGDSLRYYYAN | TKQNRPS | ESRDSSGFQVF showed 7.4 µM (2 of 3 replicates).

The variant EGDSLRYYYAN | GNNNRPS | ISRDSSGFQVF showed 390 nM (3 of 3 replicates). The variant EGDSLRYYYAN | GKNNRPS | CQRDSSGFQAF gave 1.4 µM (1 of 3 replicates). For EGDSLRYSYAN | GKNNRPW | WSRDSSGFQVF, the assay gave 65 nM (3 of 3 replicates). With EGDSLAYYYAN | GKNNRPS | GSRDSSGSQVF the result was 6.1 µM (3 of 3 replicates). The variant EGDSLRYYYAN | GKNNRPS | ESRDSSGFQMF showed 87 nM (3 of 3 replicates). With EGDSLRQYYAN | GKNNRPQ | RSRDSSGFQVF the result was 5.3 µM (2 of 3 replicates).

The variant EGDSLRYYYAN | GKNNRPS | CSRTSSGFVVF gave 270 nM (3 of 3 replicates). The variant EGDSLKYYYAF | GKNNRPS | CSRDSSGFQVF showed 1.0 µM (3 of 3 replicates). The variant RGDSLRYYYAN | GKNNRPS | FCRDSSGFQVF showed 160 nM (3 of 3 replicates).

Repeated from above, the 5 best binders with a signal in all replicates:

The variant EGDSLRYYEAN | GKNNRPS | DSRDSSGFQVF gave 28 nM (3 of 3 replicates).
The variant EGDSLRYGYAN | GKNNRPS | TSRTSSGFQVF gave 43 nM (3 of 3 replicates).
The variant EGDSLRYSYAN | GKNNRPW | WSRDSSGFQVF gave 65 nM (3 of 3 replicates).
The variant EGDSLRYYYAN | GHNNRPS | WSRDSSIFQVF gave 73 nM (3 of 3 replicates).
The variant EGDSLRYYYAN | GKNNRPS | ESRDSSGFQMF gave 87 nM (3 of 3 replicates).

In this assay the parent's reference entry averaged 200 nM; its copy inside this library read 180 nM. Three control strains display no target. For library AAYL52, 28% of the pairings with them gave a signal, with a median of 8.2 µM and one signal in twenty below 800 nM, so weak values seen in few replicates may be background.